{"source": "patent US20230101403A1", "about": "“METHOD OF TREATING OR AMELIORATING CANCERS DRIVEN BY RECEPTOR TYROSINE KINASE FUSION ONCOGENES, AND COMPOSITIONS FOR THE SAME” (THE TRUSTEES OF THE UNIVERSITY OF PENNSYLVANIA, priority 2021, published 2023)", "key": {"[1]": {"test_system": "H3122 cells", "details": "crizotinib 1 μM, marimastat 10 μM"}, "[2]": {"test_system": "Erk activity, STE-1 cells", "assay": "live cell imaging of Erk kinase translocation reporter (ErkKTR)", "type": "cell-based", "procedure": "Error bars represent 95% confidence intervals. […] FIG. 4I depicts the comparison of EGR1 expression after 6 hr of inhibitor treatment. […] FIG. 5B is the schematic of spatial analysis of Erk signaling in relation to dying cells. Cells within a 32 μm radius of a dying cell were considered neighbors of the dying cell, whereas all other cells were non-neighbors. Neighbors/non-neighbors were identified and tracked for 50 min before the death event, and Erk actvity in these cells was quantified. FIG. 5C depicts the quantification of Erk activity pulses in neighbors (“N”) or non-neighbors (“R”) of each cell-death event in the indicated conditions.\nTo further understand Erk reactivation, the present study observed Erk activity using live cell imaging of the Erk kinase translocation reporter (ErkKTR) in STE-1 cells (FIG. 4A). ErkKTR is a fluorescence reporter whose localization corresponds with Erk activity: the nuclear localization of ErkKTR indicates low activity of Erk while the cytoplasmic localization indicates high activity of Erk."}}}
{"smiles": "C[C@@H](Oc1cc(-c2cnn(C3CCNCC3)c2)cnc1N)c1c(Cl)ccc(F)c1Cl", "note": "[crizotinib]", "values": [{"measurement": "cell outgrowth at 17 days of treatment", "setting": "[1]", "result": "started to grow out again"}, {"measurement": "time to onset of Erk activity pulsing", "setting": "[2]; 1 μM", "result": "≤ 1", "unit": "h"}, {"measurement": "duration of Erk activity pulses", "setting": "[2]; individual cells", "result": "~15", "unit": "min"}]}
